The source of these data is patent US20020010186A1, “Dihydropyrimidines and uses thereof” (Synaptic Pharmaceutical Corporation, priority 1996, published 2002).

By UniProt entry, the sequences of proteins in these tests, tags left out.
UniProt P35368, whole entry: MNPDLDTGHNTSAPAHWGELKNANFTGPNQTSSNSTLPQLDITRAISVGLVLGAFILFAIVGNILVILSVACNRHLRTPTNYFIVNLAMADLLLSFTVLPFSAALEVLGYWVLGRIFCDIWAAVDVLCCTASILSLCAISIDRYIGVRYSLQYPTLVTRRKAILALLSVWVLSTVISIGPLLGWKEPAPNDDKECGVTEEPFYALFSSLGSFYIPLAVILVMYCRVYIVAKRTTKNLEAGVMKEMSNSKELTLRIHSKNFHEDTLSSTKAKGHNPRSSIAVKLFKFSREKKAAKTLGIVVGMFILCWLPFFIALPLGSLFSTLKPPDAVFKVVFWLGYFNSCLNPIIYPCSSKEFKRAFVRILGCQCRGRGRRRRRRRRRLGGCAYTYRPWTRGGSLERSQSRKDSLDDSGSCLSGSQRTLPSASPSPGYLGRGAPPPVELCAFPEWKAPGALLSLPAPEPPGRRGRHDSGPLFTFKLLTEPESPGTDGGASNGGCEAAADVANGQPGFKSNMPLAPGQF
UniProt P25100, whole entry: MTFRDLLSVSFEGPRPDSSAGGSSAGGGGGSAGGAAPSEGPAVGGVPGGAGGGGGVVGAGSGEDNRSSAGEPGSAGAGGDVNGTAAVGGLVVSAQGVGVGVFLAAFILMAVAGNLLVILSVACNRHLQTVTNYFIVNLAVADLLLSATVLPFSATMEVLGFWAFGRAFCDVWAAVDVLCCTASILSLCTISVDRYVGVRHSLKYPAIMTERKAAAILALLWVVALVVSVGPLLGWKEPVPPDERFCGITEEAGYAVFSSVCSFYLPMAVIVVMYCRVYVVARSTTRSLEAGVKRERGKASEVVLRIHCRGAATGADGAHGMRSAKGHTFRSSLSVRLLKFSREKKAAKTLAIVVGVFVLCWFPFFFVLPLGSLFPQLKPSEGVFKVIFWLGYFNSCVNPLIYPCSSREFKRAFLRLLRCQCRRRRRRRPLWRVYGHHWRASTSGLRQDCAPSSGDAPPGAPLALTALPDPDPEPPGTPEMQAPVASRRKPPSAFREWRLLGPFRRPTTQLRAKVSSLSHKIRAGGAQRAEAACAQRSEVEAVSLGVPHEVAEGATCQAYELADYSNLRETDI

Where two headings read alike, the source gives them in different places.

In test [1] the target is T1, human α1A receptor (Homo sapiens, UniProt P35348).
T1 sequence (P35348 1-466): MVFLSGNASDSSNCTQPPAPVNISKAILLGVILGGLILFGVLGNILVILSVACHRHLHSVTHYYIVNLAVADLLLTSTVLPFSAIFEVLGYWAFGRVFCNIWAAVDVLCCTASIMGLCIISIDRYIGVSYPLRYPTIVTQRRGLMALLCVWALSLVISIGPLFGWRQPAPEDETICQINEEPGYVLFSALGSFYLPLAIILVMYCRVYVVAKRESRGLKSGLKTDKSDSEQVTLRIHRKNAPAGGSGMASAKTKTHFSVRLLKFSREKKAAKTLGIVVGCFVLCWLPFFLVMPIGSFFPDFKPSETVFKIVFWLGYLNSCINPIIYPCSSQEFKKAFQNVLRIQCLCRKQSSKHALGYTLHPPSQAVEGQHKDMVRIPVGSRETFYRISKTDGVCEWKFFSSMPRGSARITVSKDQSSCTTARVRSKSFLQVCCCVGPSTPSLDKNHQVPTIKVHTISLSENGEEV
Kind of test: Radioligand binding assay ([3H]prazosin) at cloned human α1A adrenergic receptor. How it is done: (§1) These cell lines were prepared by transfecting the cloned cDNA or cloned genomic DNA or constructs containing both genomic DNA and cDNA encoding the human u-adrenergic receptors as follows:
(§2) The construct involved ligating three partial overlapping fragments: a 5′ 0.6 kb HincII genomic clone, a central 1.8 EcoRI hippocampal cDNA clone, and a 3′ 0.6Kb PstI genomic clone. The hippocampal cDNA fragment overlaps with the 5′ and 3′ genomic clones so that the HincII and PstI sites at the 5′ and 3′ ends of the cDNA clone, respectively, were utilized for ligation. This full-length clone was cloned into the KpnI site of the expression vector, using the 5′ and 3′ KpnI sites of the fragment, derived from vector (i.e., pBluescript) and 3′-untranslated sequences, respectively. Stable cell lines were selected as described above. […] Radioligand Binding Assays: Transfected cells from culture flasks were scraped into 5 ml of 5 mM Tris-HCl, 5 mM EDTA, pH 7.5, and lysed by sonication. The cell lysates were centrifuged at 1000 rpm for 5 min at 4° C., and the supernatant was centrifuged at 30,000×g for 20 min at 4° C. The pellet was suspended in 50 mM Tris-HCl, 1 mM MgCl2, and 0.1% ascorbic acid at pH 7.5. […] Nonspecific binding was determined in the presence of 10 μM phentolamine. […]

The target in test [2] is human α1B receptor (Homo sapiens, UniProt P35368). Kind of test: Radioligand binding assay ([3H]prazosin) at cloned human α1B adrenergic receptor. Particulars: membranes of LM(tk-) cells, [3H]prazosin 0.5 nM, read-out: hα1b pKi (converted). How it is done: as §1
The construct involved ligating the full-length containing EcoRI brainstem cDNA fragment from λ ZapII into the expression vector. Stable cell lines were selected as described above.
as §2, with “C.” for “C. The pellet was suspended in 50 mM Tris-HCl, 1 mM MgCl2, and 0.1% ascorbic acid at pH 7.5.”

Test [3] has as its target human α1D receptor (Homo sapiens, UniProt P25100). Kind of test: Radioligand binding assay ([3H]prazosin) at cloned human α1D adrenergic receptor. Conditions: membranes of LM(tk-) cells, [3H]prazosin 0.5 nM, read-out: hα1d pKi (converted). How it is done: as §1
The cells were grown, in a controlled environment ([…]., 5% CO2), as monolayers in Dulbecco's modified Eagle's Medium (GIBCO, Grand Island, N.Y.) containing 25 mM glucose and supplemented with 10% bovine calf serum, 100 units/ml penicillin g, and 100 μg/ml streptomycin sulfate.
as §2, with “sonication.” for “sonication. The cell lysates were centrifuged at 1000 rpm for 5 min at 4° C., and the supernatant was centrifuged at 30,000×g for 20 min at 4° C. The pellet was suspended in 50 mM Tris-HCl, 1 mM MgCl2, and 0.1% ascorbic acid at pH 7.5.”

On to `CCC1=C(C(N)=O)C(c2ccc([N+](=O)[O-])cc2)N(C(=O)NCCCN2CCC(C(=O)OC)(c3ccccc3)CC2)C(=O)N1` (single isomer, unassigned; (+)) [Example 13, (+)-5-Carboxamido-4-ethyl-1-{N-[3-(4-methoxycarbonyl-4-phenylpiperidin-1-yl)propyl]}carboxamido-6-(4-nitrophenyl)-2-oxo-1,2,3,6-tetrhydropyrimidine], for which the Ki in test [1] (cloned human α1a receptor, membranes of LM(tk-) cells, [3H]prazosin 0.5 nM, read-out: hα1a pKi (converted)) is 0.182 nM; in test [2], 617 nM; in test [3], 724 nM.
With `COC(=O)C1=C(C)N=C(C)N(CCCCCN2CCC(C(=O)OC)(c3ccccc3)CC2)C1c1ccc(F)c(F)c1` (stereo not shown) [Example 17, 6-(3,4-Difluorophenyl)-1,6-dihydro-5-methoxycarbonyl-1-(5-(4-methoxycarbonyl-4-phenylpiperidin-1-yl)-pentyl)-2,4-dimethylpyrimidine], in test [1], the Ki was 1.02 nM.
